Measured values from IntAct's records for PubMed 35512704.

B1: RAC-alpha serine/threonine-protein kinase (Homo sapiens), P31749 (parent)
chain: MSDVAIVKEGWLHKRGEYIKTWRPRYFLLKNDGTFIGYKERPQDVDQREAPLNNFSVAQCQLMKTERPRPNTFIIRCLQWTTVIERTFHVETPEEREEWTTAIQTVADGLKKQEEEEMDFRSGSPSDNSGAEEMEVSLAKPKHRVTMNEFEYLKLLGKGTFGKVILVKEKATGRYYAMKILKKEVIVAKDEVAHTLTENRVLQNSRHPFLTALKYSFQTHDRLCFVMEYANGGELFFHLSRERVFSEDRARFYGAEIVSALDYLHSEKNVVYRDLKLENLMLDKDGHIKITDFGLCKEGIKDGATMKTFCGTPEYLAPEVLEDNDYGRAVDWWGLGVVMYEMMCGRLPFYNQDHEKLFELILMEEIRFPRTLGPEAKSLLSGLLKKDPKQRLGGGSEDAKEIMQHRFFAGIVWQHVYEKKLSPPFKPQVTSETDTRYFDEEFTAQMITITPPDQDDSMECVDSERRPHFPQFSYSASGTA

Variants of: B1
Details: with chd2_human CHD2, O14647

Variant	effect of a mutation on the interaction
MSDVAIVKEGWLHKRGKYIKTWRPRYFLLKNDGTFIGYKERPQDVDQREAPLNNFSVAQCQLMKTERPRPNTFIIRCLQWTTVIERTFHVETPEEREEWTTAIQTVADGLKKQEEEEMDFRSGSPSDNSGAEEMEVSLAKPKHRVTMNEFEYLKLLGKGTFGKVILVKEKATGRYYAMKILKKEVIVAKDEVAHTLTENRVLQNSRHPFLTALKYSFQTHDRLCFVMEYANGGELFFHLSRERVFSEDRARFYGAEIVSALDYLHSEKNVVYRDLKLENLMLDKDGHIKITDFGLCKEGIKDGATMKTFCGTPEYLAPEVLEDNDYGRAVDWWGLGVVMYEMMCGRLPFYNQDHEKLFELILMEEIRFPRTLGPEAKSLLSGLLKKDPKQRLGGGSEDAKEIMQHRFFAGIVWQHVYEKKLSPPFKPQVTSETDTRYFDEEFTAQMITITPPDQDDSMECVDSERRPHFPQFSYSASGTA [E17K]	causing an interaction

Variants of: B1
Details: with ch3l1_human CHI3L1, P36222

Variant	effect of a mutation on the interaction
MSDVAIVKEGWLHKRGKYIKTWRPRYFLLKNDGTFIGYKERPQDVDQREAPLNNFSVAQCQLMKTERPRPNTFIIRCLQWTTVIERTFHVETPEEREEWTTAIQTVADGLKKQEEEEMDFRSGSPSDNSGAEEMEVSLAKPKHRVTMNEFEYLKLLGKGTFGKVILVKEKATGRYYAMKILKKEVIVAKDEVAHTLTENRVLQNSRHPFLTALKYSFQTHDRLCFVMEYANGGELFFHLSRERVFSEDRARFYGAEIVSALDYLHSEKNVVYRDLKLENLMLDKDGHIKITDFGLCKEGIKDGATMKTFCGTPEYLAPEVLEDNDYGRAVDWWGLGVVMYEMMCGRLPFYNQDHEKLFELILMEEIRFPRTLGPEAKSLLSGLLKKDPKQRLGGGSEDAKEIMQHRFFAGIVWQHVYEKKLSPPFKPQVTSETDTRYFDEEFTAQMITITPPDQDDSMECVDSERRPHFPQFSYSASGTA [E17K]	causing an interaction

Variants of: B1
Details: with dll3_human DLL3, Q9NYJ7

Variant	effect of a mutation on the interaction
MSDVAIVKEGWLHKRGKYIKTWRPRYFLLKNDGTFIGYKERPQDVDQREAPLNNFSVAQCQLMKTERPRPNTFIIRCLQWTTVIERTFHVETPEEREEWTTAIQTVADGLKKQEEEEMDFRSGSPSDNSGAEEMEVSLAKPKHRVTMNEFEYLKLLGKGTFGKVILVKEKATGRYYAMKILKKEVIVAKDEVAHTLTENRVLQNSRHPFLTALKYSFQTHDRLCFVMEYANGGELFFHLSRERVFSEDRARFYGAEIVSALDYLHSEKNVVYRDLKLENLMLDKDGHIKITDFGLCKEGIKDGATMKTFCGTPEYLAPEVLEDNDYGRAVDWWGLGVVMYEMMCGRLPFYNQDHEKLFELILMEEIRFPRTLGPEAKSLLSGLLKKDPKQRLGGGSEDAKEIMQHRFFAGIVWQHVYEKKLSPPFKPQVTSETDTRYFDEEFTAQMITITPPDQDDSMECVDSERRPHFPQFSYSASGTA [E17K]	causing an interaction

Variants of: B1
Details: with duox2_human DUOX2, Q9NRD8

Variant	effect of a mutation on the interaction
MSDVAIVKEGWLHKRGKYIKTWRPRYFLLKNDGTFIGYKERPQDVDQREAPLNNFSVAQCQLMKTERPRPNTFIIRCLQWTTVIERTFHVETPEEREEWTTAIQTVADGLKKQEEEEMDFRSGSPSDNSGAEEMEVSLAKPKHRVTMNEFEYLKLLGKGTFGKVILVKEKATGRYYAMKILKKEVIVAKDEVAHTLTENRVLQNSRHPFLTALKYSFQTHDRLCFVMEYANGGELFFHLSRERVFSEDRARFYGAEIVSALDYLHSEKNVVYRDLKLENLMLDKDGHIKITDFGLCKEGIKDGATMKTFCGTPEYLAPEVLEDNDYGRAVDWWGLGVVMYEMMCGRLPFYNQDHEKLFELILMEEIRFPRTLGPEAKSLLSGLLKKDPKQRLGGGSEDAKEIMQHRFFAGIVWQHVYEKKLSPPFKPQVTSETDTRYFDEEFTAQMITITPPDQDDSMECVDSERRPHFPQFSYSASGTA [E17K]	causing an interaction

Variants of: B1
Details: with e2f2_human E2F2, Q14209

Variant	effect of a mutation on the interaction
MSDVAIVKEGWLHKRGKYIKTWRPRYFLLKNDGTFIGYKERPQDVDQREAPLNNFSVAQCQLMKTERPRPNTFIIRCLQWTTVIERTFHVETPEEREEWTTAIQTVADGLKKQEEEEMDFRSGSPSDNSGAEEMEVSLAKPKHRVTMNEFEYLKLLGKGTFGKVILVKEKATGRYYAMKILKKEVIVAKDEVAHTLTENRVLQNSRHPFLTALKYSFQTHDRLCFVMEYANGGELFFHLSRERVFSEDRARFYGAEIVSALDYLHSEKNVVYRDLKLENLMLDKDGHIKITDFGLCKEGIKDGATMKTFCGTPEYLAPEVLEDNDYGRAVDWWGLGVVMYEMMCGRLPFYNQDHEKLFELILMEEIRFPRTLGPEAKSLLSGLLKKDPKQRLGGGSEDAKEIMQHRFFAGIVWQHVYEKKLSPPFKPQVTSETDTRYFDEEFTAQMITITPPDQDDSMECVDSERRPHFPQFSYSASGTA [E17K]	causing an interaction

Variants of: B1
Details: with e2f5_human E2F5, Q15329

Variant	effect of a mutation on the interaction
MSDVAIVKEGWLHKRGKYIKTWRPRYFLLKNDGTFIGYKERPQDVDQREAPLNNFSVAQCQLMKTERPRPNTFIIRCLQWTTVIERTFHVETPEEREEWTTAIQTVADGLKKQEEEEMDFRSGSPSDNSGAEEMEVSLAKPKHRVTMNEFEYLKLLGKGTFGKVILVKEKATGRYYAMKILKKEVIVAKDEVAHTLTENRVLQNSRHPFLTALKYSFQTHDRLCFVMEYANGGELFFHLSRERVFSEDRARFYGAEIVSALDYLHSEKNVVYRDLKLENLMLDKDGHIKITDFGLCKEGIKDGATMKTFCGTPEYLAPEVLEDNDYGRAVDWWGLGVVMYEMMCGRLPFYNQDHEKLFELILMEEIRFPRTLGPEAKSLLSGLLKKDPKQRLGGGSEDAKEIMQHRFFAGIVWQHVYEKKLSPPFKPQVTSETDTRYFDEEFTAQMITITPPDQDDSMECVDSERRPHFPQFSYSASGTA [E17K]	causing an interaction

Variants of: B1
Details: with epha7_human EPHA7, Q15375

Variant	effect of a mutation on the interaction
MSDVAIVKEGWLHKRGKYIKTWRPRYFLLKNDGTFIGYKERPQDVDQREAPLNNFSVAQCQLMKTERPRPNTFIIRCLQWTTVIERTFHVETPEEREEWTTAIQTVADGLKKQEEEEMDFRSGSPSDNSGAEEMEVSLAKPKHRVTMNEFEYLKLLGKGTFGKVILVKEKATGRYYAMKILKKEVIVAKDEVAHTLTENRVLQNSRHPFLTALKYSFQTHDRLCFVMEYANGGELFFHLSRERVFSEDRARFYGAEIVSALDYLHSEKNVVYRDLKLENLMLDKDGHIKITDFGLCKEGIKDGATMKTFCGTPEYLAPEVLEDNDYGRAVDWWGLGVVMYEMMCGRLPFYNQDHEKLFELILMEEIRFPRTLGPEAKSLLSGLLKKDPKQRLGGGSEDAKEIMQHRFFAGIVWQHVYEKKLSPPFKPQVTSETDTRYFDEEFTAQMITITPPDQDDSMECVDSERRPHFPQFSYSASGTA [E17K]	causing an interaction
